Laboratory results taken from US7452905B2, “Phenylalanine derivatives” (Ajinomoto Co., Inc., priority 2000, dated 2008).

Chains of the proteins cited; added tags and fusions are not shown. Residues count along the entry.
UniProt P05556, 21-798 limits assumed: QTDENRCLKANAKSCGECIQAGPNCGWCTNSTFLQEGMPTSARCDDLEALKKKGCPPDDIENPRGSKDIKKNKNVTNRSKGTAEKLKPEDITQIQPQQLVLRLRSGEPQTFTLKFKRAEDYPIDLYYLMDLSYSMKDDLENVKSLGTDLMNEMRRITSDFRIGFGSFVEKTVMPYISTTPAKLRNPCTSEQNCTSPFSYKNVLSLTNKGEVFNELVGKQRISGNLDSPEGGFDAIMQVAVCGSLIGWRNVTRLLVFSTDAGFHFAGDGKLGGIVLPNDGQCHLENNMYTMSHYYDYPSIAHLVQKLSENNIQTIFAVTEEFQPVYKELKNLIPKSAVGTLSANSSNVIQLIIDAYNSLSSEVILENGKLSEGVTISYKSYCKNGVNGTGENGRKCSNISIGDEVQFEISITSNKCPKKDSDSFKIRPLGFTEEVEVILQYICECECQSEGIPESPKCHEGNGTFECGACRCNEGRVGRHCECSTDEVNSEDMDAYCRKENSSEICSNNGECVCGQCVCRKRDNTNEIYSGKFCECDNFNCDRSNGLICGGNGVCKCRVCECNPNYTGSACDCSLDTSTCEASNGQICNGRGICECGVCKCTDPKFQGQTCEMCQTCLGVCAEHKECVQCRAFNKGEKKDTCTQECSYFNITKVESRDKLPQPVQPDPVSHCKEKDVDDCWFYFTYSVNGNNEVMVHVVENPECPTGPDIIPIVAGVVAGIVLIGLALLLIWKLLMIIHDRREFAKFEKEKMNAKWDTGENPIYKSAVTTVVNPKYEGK
UniProt P13612, 34-1032 limits assumed: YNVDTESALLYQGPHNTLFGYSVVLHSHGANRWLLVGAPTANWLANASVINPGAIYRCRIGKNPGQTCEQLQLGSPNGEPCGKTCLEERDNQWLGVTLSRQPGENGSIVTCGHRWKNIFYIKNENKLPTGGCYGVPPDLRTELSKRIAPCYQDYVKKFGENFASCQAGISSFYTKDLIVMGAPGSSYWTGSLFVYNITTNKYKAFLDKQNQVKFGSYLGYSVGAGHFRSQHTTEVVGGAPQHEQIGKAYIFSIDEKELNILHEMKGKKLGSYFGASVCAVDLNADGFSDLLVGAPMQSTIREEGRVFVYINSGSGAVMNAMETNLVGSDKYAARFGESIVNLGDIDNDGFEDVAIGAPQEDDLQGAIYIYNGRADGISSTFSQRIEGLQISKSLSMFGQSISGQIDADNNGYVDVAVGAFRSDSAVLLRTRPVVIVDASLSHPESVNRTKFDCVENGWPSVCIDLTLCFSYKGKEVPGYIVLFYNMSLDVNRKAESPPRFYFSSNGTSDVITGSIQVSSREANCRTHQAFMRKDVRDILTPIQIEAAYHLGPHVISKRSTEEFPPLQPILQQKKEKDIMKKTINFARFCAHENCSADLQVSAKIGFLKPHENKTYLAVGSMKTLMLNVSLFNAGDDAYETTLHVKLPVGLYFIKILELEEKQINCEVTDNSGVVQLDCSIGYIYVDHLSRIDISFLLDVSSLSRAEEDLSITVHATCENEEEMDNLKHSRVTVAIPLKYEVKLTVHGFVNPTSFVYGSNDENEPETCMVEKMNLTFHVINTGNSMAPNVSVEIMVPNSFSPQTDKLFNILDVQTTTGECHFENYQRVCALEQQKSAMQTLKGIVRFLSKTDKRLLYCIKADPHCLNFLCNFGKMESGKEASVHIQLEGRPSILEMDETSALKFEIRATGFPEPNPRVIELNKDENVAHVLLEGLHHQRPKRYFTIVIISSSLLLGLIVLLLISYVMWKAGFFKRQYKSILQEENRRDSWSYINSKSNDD
UniProt P26010, 20-798 limits assumed: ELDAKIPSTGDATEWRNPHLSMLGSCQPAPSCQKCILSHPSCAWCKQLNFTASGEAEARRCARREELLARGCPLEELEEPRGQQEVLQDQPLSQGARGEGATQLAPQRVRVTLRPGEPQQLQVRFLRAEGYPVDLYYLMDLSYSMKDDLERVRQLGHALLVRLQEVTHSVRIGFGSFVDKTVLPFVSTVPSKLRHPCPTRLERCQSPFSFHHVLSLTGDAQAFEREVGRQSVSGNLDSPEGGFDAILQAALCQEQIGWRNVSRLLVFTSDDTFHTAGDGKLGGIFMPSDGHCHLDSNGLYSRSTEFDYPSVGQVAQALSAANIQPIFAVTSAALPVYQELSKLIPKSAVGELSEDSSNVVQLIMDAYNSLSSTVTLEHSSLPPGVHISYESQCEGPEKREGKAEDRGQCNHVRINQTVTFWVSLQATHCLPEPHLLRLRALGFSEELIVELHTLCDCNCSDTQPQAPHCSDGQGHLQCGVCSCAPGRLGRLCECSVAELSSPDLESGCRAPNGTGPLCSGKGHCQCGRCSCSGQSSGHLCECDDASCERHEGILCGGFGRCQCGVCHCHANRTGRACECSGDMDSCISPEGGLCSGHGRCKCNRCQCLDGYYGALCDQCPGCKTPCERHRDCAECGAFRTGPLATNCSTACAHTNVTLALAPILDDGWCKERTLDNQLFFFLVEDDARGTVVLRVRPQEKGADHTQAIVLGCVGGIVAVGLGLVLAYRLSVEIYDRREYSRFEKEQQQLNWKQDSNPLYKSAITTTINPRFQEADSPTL

Key:
integrin α4 β1 = integrin α4 β1 (Homo sapiens, UniProt P05556+P13612); assay: VCAM antagonist activity (VCAM-1/α4β1 binding assay), Jurkat cells binding to VCAM-1; details: read-out: Antagonistic Activity IC50 α 4 β 1/VCAM; Jurkat cells binding to recombinant human VCAM-1; 50% binding inhibition
Procedure: VCAM Antagonist Activity (VCAM-1/α4β1 Binding Assay)
The capacity of a test substance antagonistic to the binding of cell strain Jurkat (ATCC TIB-152) of human T cells, known to express integrin α4 β1, to VCAM-1 was determined. 100 μl/well of a solution (500 ng/ml) of recombinant human VCAM-1 (R & D systems) solution diluted with buffer A (0.1 M NaHCO3, pH 9.6) was added to a micro titer plate having 96 wells (Nunc Maxisorp). After the incubation at 4° C. overnight, unbound VCAM-1 was removed by washing once with PBS. After completion of the washing, a buffer (buffer B) obtained by diluting Block Ace (Dainippon Pharmaceutical Co., Ltd.) with PBS to ¼ concentration was added in an amount of 150 μl/well. After the incubation at room temperature for 1 hour, buffer B was removed and the plate was washed with PBS once.
Jurkat cells were washed with Dulbecco modified Eagle medium (SIGMA, hereinafter referred to as “DMEM”) twice and then incubated in DMEM containing 10 μg/ml of Calcein-AM (Wako Pure Chemical Industries, Ltd.) at 37° C. in dark place for 30 minutes to label with fluorescence. The cells were again suspended in a binding buffer (20 mM HEPES, DMEM containing 0.1% BSA).
(§1) 50 μl of a test substance of various concentrations obtained by the dilution with the binding buffer was added to the plate. Immediately thereafter, 50 μl (final volume: 100 μl well) of the fluorescent Jurkat cells (4×10^6 cells/ml) were added thereto, and they were incubated at room temperature for 30 minutes. After the shaking on a plate shaker (IKA MTS-4) at 800 rpm for 30 seconds, the solution was immediately removed to remove the unbound cells. The fluorescence quantity of the bound cells remaining in the wells was determined with a fluorescent plate reader (Wallac 1420 ARVO multi-label counter) (filter excitation wave length: 485 nm, emission wave length: 535 nm). The fluorescent strength thus obtained is proportional to the number of Jurkat cells bound to VCAM-1 and remaining on the plate. The binding rate of each test material in various concentrations was determined while the fluorescent strength of the test material-free well was determined to be 100%. The concentration IC50 for the 50% binding inhibition was calculated.

integrin α4β7 = integrin α4β7 (Homo sapiens, UniProt P13612+P26010); assay: VCAM antagonistic activity (VCAM-1/α4β7 binding assay), RPMI-8866 cells binding to VCAM-1; details: read-out: Antagonistic Activity IC50 α 4 β 7/VCAM; RPMI-8866 cells binding to recombinant human VCAM-1, binding buffer with 4 mM MnCl2; 50% binding inhibition
Procedure: VCAM Antagonistic Activity (VCAM-1/α4β7 Binding Assay)
The capacity of a test substance antagonistic to the binding of lymphoma cell strain RPMI-8866 of human B cells, known to express integrin α4β7, to VCAM-1 was determined. 100 μl/well of a solution (500 ng/ml) of recombinant human VCAM-1 (R & D systems) solution diluted with buffer A (0.1 M NaHCO3, pH 9.6) was added to a micro titer plate having 96 wells (Nunc Maxisorp). After the incubation at 4° C. overnight, unbound VCAM-1 was removed by washing once with PBS. After completion of the washing, a buffer (buffer B) obtained by diluting Block Ace (Dainippon Pharmaceutical Co., Ltd.) with PBS to ¼ concentration was added in an amount of 150 μl/well. After the incubation at room temperature for 1 hour, buffer B was removed and the plate was washed with PBS once.
RPMI-8866 cells were incubated in Dulbecco modified Eagle medium containing 10 μg/ml of Calcein-AM (Wako Pure Chemical Industries, Ltd.) (SIGMA, hereinafter referred to as “DMEM”) at 37° C. for 30 minutes to label with fluorescence. The cells were again suspended in a binding buffer (20 mM HEPES, DMEM containing 0.1% BSA) containing 4 mM of MnCl2.
as §1, with “μl/well)” for “μl well)”, “RPMI-8866” for “Jurkat”

SMILES | IC50 (integrin α4 β1) | IC50 (integrin α4β7)
COc1cccc2c1C(=O)N(c1ccc(C[C@H](NC(=O)c3c(Cl)cccc3Cl)C(=O)O)cc1)C2=O | 150 nM | 4.5 nM
N#CC1Cc2ccccc2C(=O)N1c1ccc(C[C@H](NC(=O)c2c(Cl)cccc2Cl)C(=O)O)cc1 (stereo partly shown) | 770 nM | 84 nM
CC(C)COc1cccc2c1C(=O)N(c1ccc(C[C@H](NC(=O)c3c(Cl)cccc3Cl)C(=O)O)cc1)C2=O | 1200 nM | 96 nM
O=C(N[C@@H](Cc1ccc(N2C(=O)c3ccc(F)cc3C2=O)cc1)C(=O)O)c1c(Cl)cccc1Cl | 600 nM | 23 nM
Nc1ccc2c(c1)C(=O)N(c1ccc(C[C@H](NC(=O)c3c(Cl)cccc3Cl)C(=O)O)cc1)C2=O | 33 nM | 2.6 nM
O=C(N[C@@H](Cc1ccc(N2C(=O)c3cccc([N+](=O)[O-])c3C2=O)cc1)C(=O)O)c1c(Cl)cccc1Cl | 330 nM | 8.5 nM
O=C(N[C@@H](Cc1ccc(N2C(=O)[C@H]3CCCC[C@H]3C2=O)cc1)C(=O)O)c1c(Cl)cccc1Cl | 630 nM | 19 nM
O=C(N[C@@H](Cc1ccc(N2C(=O)c3ccc(Br)cc3C2=O)cc1)C(=O)O)c1c(Cl)cccc1Cl | 270 nM | 18 nM
COC(=O)C1Cc2ccccc2C(=O)N1c1ccc(C[C@H](NC(=O)c2c(Cl)cccc2Cl)C(=O)O)cc1 (stereo partly shown) | 1100 nM | 84 nM
O=C(N[C@@H](Cc1ccc(N2C(=O)c3cccc(F)c3C2=O)cc1)C(=O)O)c1c(Cl)cccc1Cl | 140 nM | 8 nM
Cc1cccc2c1C(=O)N(c1ccc(C[C@H](NC(=O)c3c(Cl)cccc3Cl)C(=O)O)cc1)C2=O | 500 nM | 20 nM
